Test results reported in patent US11046721B2, “Ruthenium-based photolinkers and methods of use” (The Trustees of the University of Pennsylvania, priority 2014, dated 2021).
Values joined by “and” are separate entries in the source; they are usually repeats but may differ in a detail not shown here. Identical values can stand only once. “Also recorded” adds a separate entry of the source.

Assays:
zebrafish embryos = experiment: Control injections (RuBEP, scramble morpholino) in zebrafish embryos: toxicity and development; format: in vivo; conditions: injected at 1-cell stage (500 μM), dark or irradiated at 450 nm
Protocol: FIG. 31, comprising FIGS. 31A-31C, is a series of images of zebrafish embryos treated with RuBEP+/−light in vivo with control. FIG. 31A is an image depicting an uninjected wildtype zebrafish embryo. FIG. 31B is an image depicting a zebrafish embryo injected at the 1-cell stage with 500 μM RuBEP and incubated in the dark. FIG. 31C is an image depicting a zebrafish embryo injected at the 1-cell stage with 500 μM RuBEP and irradiated (450 nm, 14 mW/cm^2, 15 min).
FIG. 32, comprising FIGS. 32A-32B, is a series of images of zebrafish embryos treated with scramble morpholino in vivo with control. FIG. 32A is an image depicting an uninjected wildtype zebrafish embryo. FIG. 32B is an image depicting a zebrafish embryo injected at the 1-cell stage with 500 μM standard scramble control morpholino (see sequence, Table S9).
Zebrafish embryos were obtained. All embryos obtained were TLF×TLF WT. Zebrafish embryo injection solutions were prepared to contain a final concentration of 0.1 M KCl and 0.25% phenol red dye. All injections were performed at the one-cell stage and injected into the cell compartment only. A Harvard Apparatus PLI-100 pico-injector was used to inject controlled volumes. Injection volume was calibrated to dispense 5 nL per embryo. Zebrafish embryos were incubated at 28° C. in E3 zebrafish medium. […]

Substance: [Ru(bipyridine)2(3-ethynyl- pyridine)2]^2+ [RuBEP]
- Toxicity / development of injected embryos (zebrafish embryos): remain healthy and develop normally; also recorded: no toxicity or phenotypic response; also recorded: normal development
- Quantum yield of photorelease (ligand exchange) (450 nm, in water under ambient oxygen (air)): 0.33 and 0.33+/−0.06 and 0.33±0.06
- Uncaging efficiency (ε450 times φ) (at 450 nm): 2000 M⁻¹ cm⁻¹
